The values below come from patent publication US20180291378A1, “METHODS AND COMPOSITIONS FOR PROMOTING HAIR GROWTH” (THE TRUSTEES OF COLUMBIA UNIVERSITY IN THE CITY OF NEW YORK, priority 2015, published 2018).

The subject of assay [1] is JAK1, JAK2, JAK3, TYK2. Particulars: cited from earlier work.
For assay [2], the system named is human fetal scalp skin grafts. Put plainly: Human skin grafting assay on SCID mice. The format is in vivo. Particulars: daily topical application, ImageJ.

The structures appear in SMILES notation.

For the molecule `C[C@@H]1CCN(C(=O)CC#N)C[C@@H]1N(C)c1ncnc2[nH]ccc12` [tofacitinib], the “order of JAK selectivity” value in assay [1] is “JAK1/3>JAK2>TYK2”. Also, the “ratio of tofacitinib/vehicle intensity of pigmentation” value in assay [2] is “increased with days of treatment”.
